Key:
[1] = target: T-cell protein tyrosine phosphatase (TCPTP) (Homo sapiens, UniProt P17706); assay: TCPTP inhibition assay (selectivity); type: biochemical; conditions: 20 μM compound, 2% DMSO
PTP1B = PTP1B (Homo sapiens, UniProt P18031); assay: PTP1B inhibition assay with p-nitrophenyl phosphate (pNPP) as substrate; conditions: read-out: IC50 on PTP1B, dose-response run when inhibition >50% at 20 μM

By UniProt entry, the sequences of proteins in these tests, tags left out.
UniProt P17706, whole entry: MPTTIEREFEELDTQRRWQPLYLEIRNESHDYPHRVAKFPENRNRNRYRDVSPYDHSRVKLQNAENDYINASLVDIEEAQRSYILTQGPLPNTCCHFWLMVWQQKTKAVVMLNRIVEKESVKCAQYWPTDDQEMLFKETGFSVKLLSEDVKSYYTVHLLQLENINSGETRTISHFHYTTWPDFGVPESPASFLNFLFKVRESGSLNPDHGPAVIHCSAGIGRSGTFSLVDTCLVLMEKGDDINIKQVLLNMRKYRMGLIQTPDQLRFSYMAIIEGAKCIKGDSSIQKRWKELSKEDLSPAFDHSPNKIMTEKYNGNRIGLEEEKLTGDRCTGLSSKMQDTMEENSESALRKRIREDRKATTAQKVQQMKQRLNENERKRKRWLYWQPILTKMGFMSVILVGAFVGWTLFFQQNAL
UniProt P18031, whole entry: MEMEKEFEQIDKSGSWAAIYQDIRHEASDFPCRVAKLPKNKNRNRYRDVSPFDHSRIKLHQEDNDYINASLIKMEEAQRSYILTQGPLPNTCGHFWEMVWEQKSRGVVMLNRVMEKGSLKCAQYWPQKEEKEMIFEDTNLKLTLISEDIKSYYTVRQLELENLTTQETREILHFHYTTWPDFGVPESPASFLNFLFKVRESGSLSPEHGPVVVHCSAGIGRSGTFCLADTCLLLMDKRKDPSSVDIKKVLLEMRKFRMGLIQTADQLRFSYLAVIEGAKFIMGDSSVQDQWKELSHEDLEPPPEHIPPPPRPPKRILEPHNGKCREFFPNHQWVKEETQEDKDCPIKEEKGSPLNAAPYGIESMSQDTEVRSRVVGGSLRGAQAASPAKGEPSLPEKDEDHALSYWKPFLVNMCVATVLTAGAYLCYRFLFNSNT

% Inhibition (20 μM) on TCPTP [1]	IC50 (PTP1B)	Structure (SMILES)
38.29%	7.9 µM	Clc1ccc2[nH]cc(Cc3nc(Cc4c[nH]c5ccccc45)no3)c2c1
55.17%	5.8 µM	c1ccc2c(Cc3noc(Cc4c[nH]c5ccccc45)n3)c[nH]c2c1
–	> 20 µM	CCCCc1ccc(C(=O)ON=C(N)Cc2c[nH]c3ccccc23)cc1
54.35%	8.7 µM	Clc1ccc2c(Cc3nc(Cc4c[nH]c5ccccc45)no3)c[nH]c2c1
